Data reported in patent publication US11319283B2, “Substituted cyclobutylbenzene compounds as indoleamine 2,3-dioxygenase (IDO) inhibitors” (MERCK SHARP & DOHME CORP., priority 2017, dated 2022).

Amino acid sequences for entries named in this document (tags omitted).
UniProt P48775, whole entry: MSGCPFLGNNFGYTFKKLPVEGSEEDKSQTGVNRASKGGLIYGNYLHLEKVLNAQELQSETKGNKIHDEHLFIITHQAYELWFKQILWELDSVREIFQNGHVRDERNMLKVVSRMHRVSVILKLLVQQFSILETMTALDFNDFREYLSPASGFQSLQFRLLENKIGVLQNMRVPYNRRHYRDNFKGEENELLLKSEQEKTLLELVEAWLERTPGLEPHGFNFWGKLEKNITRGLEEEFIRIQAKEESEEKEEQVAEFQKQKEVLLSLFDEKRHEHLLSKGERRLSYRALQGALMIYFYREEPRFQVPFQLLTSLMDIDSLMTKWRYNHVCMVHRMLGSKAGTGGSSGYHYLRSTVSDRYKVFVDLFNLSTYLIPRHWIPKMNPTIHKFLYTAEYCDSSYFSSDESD

Molecular target: TDO (Homo sapiens, UniProt P48775)
Assay: TDO Cellular Assay in Frozen SW48 Cells
Assay type: cell-based
Conditions: read-out: SW48 IC50, 300 uM L-tryptophan, about 48 hours, fluorescence readout

In the case of `O=C(Nc1ccc(C2(C(=O)NC3Cc4ccc(F)cc43)CCC2)cc1)c1cccc(Cl)c1` (stereo not shown), the IC50 is reported as no less than 10 µM.
